{"source": "patent US12089591B2", "about": "(priority 2005, dated 2024)", "test_system": "ROUNDUP READY FLEX cotton", "assay": "Greenhouse test of PMIDA-induced necrosis in ROUNDUP READY FLEX cotton", "conditions": "Example H2; composition D + additive 10:1 w/w; 2520 g/ha", "note": "This is a selection: effects in other tests are not listed, and their absence says nothing."}
{"smiles": "OCCN(CCO)CCO", "values": [{"measurement": "decrease of necrosis (in words)", "value": "significantly decreased necrosis"}]}
